# Experimental data from US20010039287A1, “AROMATIC SULFONE HYDROXAMIC ACID METALLOPROTEASE INHIBITOR” (priority 1997, published 2001).
# Protein sequences, listed by entry. Tags and fused reporters are not part of them. Residues count along the entry.
# UniProt P03956, 100-469 limits assumed: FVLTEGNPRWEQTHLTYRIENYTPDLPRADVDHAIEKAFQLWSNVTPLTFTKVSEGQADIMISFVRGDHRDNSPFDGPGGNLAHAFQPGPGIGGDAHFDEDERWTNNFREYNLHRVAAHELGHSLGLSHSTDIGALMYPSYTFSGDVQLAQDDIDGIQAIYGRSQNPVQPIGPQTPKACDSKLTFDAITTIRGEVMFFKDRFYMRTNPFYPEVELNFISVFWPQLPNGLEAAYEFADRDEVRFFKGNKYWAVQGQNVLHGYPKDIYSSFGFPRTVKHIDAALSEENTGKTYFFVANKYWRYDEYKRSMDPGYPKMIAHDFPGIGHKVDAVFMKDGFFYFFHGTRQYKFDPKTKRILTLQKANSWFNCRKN
# UniProt P08253, 110-660 limits assumed: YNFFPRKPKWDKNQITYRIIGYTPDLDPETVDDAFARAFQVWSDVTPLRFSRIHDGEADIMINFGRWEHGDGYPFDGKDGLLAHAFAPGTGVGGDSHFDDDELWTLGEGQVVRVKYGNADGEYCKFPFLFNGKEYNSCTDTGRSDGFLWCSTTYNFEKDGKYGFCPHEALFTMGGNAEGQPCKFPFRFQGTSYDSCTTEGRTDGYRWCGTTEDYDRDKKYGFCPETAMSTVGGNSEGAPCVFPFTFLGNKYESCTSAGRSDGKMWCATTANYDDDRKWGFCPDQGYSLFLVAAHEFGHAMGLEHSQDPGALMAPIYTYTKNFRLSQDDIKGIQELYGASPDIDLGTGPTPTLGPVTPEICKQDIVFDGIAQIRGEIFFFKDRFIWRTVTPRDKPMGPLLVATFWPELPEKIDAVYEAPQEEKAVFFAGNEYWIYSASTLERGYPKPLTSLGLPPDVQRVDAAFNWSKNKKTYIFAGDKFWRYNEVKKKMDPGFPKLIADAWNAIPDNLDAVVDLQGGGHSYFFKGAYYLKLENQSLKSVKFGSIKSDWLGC
# Tests used:
# recombinant human MMP-1 = recombinant human MMP-1 (Homo sapiens, UniProt P03956); settings: read-out: MMP-1 IC50; Inhibition Table B; tested form: TFA
# recombinant human MMP-2 = recombinant human MMP-2 (Homo sapiens, UniProt P08253); settings: read-out: MMP-2 IC50; Inhibition Table B; tested form: TFA
# recombinant human MMP-13 = recombinant human MMP-13 (Homo sapiens, UniProt P45452); settings: read-out: MMP-13 IC50; Inhibition Table B; tested form: TFA
smiles,measurement,setting,value
O=C(NO)C1(S(=O)(=O)c2ccc(-c3ccc(OCCN4CCCC4)cc3)cc2)CCOCC1,IC50,recombinant human MMP-1,> 10000 nM
same,IC50,recombinant human MMP-2,< 1 nM
same,IC50,recombinant human MMP-13,< 1 nM
